Results reported in patent US10213409B2, “Substituted benzofurans, benzothiophenes, benzoselenophenes and indoles and their use as tubulin polymerisation inhibitors” (Bionomics Limited, priority 2006, dated 2019).

System: Human umbilical vein endothelial cells (HUVECs), tumour type activated (Tum)
Assay: Proliferation Assay - Activated Endothelium (MTT)
Assay type: cell-based
Details: comparison of activated and quiescent HUVEC assays, FIGS. 1 and 2, Table 1

combretastatin A4
potency towards activated (tumour) versus quiescent (normal) endothelial cells: equally potent

This is a selection: effects in other tests are not listed, and their absence says nothing.
